Key:
[1] = test system: MCF-7 breast cancer cells; assay: MTT assay, cell viability of breast cancer cell line (MCF-7); assay type: cell-based; details: 1 μM, 72 hours
Experimental: Specifically, MCF-7 breast cancer cells deposited under an accession number of KCTC13643BP on Sep. […] At this time, DMSO (dimethyl sulfoxide) was added to a control group in an amount to be 0.01% of the total medium, 1 μM paclitaxel was added to a positive control group, and then these control group and positive control group were cultured for 72 hours.
When each of the culture times passed after drug treatment, the supernatant of each medium was removed, the MTT reagent was added to the fresh medium so as to be 0.5 mg/ml, the cells were cultured for 3 hours, then the supernatant was removed again, and then the medium was reconstituted with 100 μL of DMSO. Thereafter, the absorbance of cells was measured at 590 nm by using an ELISA instrument.

HCC-78 cells = assay: WST-1 assay, cell growth inhibitory effect on lung carcinoma cell line (HCC-78); assay type: cell-based; details: 1 μM
Experimental: Specifically, HCC-78 lung cancer cells deposited under an accession number of KCTC13642BP on Sep. […] At this time, DMSO (dimethyl sulfoxide) was added to a control group in an amount to be 0.01% of the total medium, 1 μM doxorubicin was added to a positive control group, and then these control group and positive control group were cultured for 24, 48, and 72 hours, respectively. In addition, the experiment was conducted using an A549 cell line instead of the HCC cell line as a negative control group. The A549 cell line is a kRAS mutant cell line and is also a cell line which is not involved in the overexpression of ALK and ROS-1.
When each of the culture times passed after drug treatment, the WST-1 reagent was added to each medium in an amount to be 10% of the medium, the cells were cultured for 1 hour, and then the absorbance of cells was measured at 470 nm by using an ELISA instrument.

C[C@@H](Oc1cc(-c2cnn(C3CCNCC3)c2)cnc1N)c1c(Cl)ccc(F)c1Cl [crizotinib]
cell growth rate of MCF-7 as compared with control group [1]: 48.45% | growth rate of HCC-78 cells (control group = 100%) (HCC-78 cells; 24 hours after treatment): 77.13% | growth rate of HCC-78 cells (control group = 100%) (HCC-78 cells; 48 hours after treatment): 37.63% | growth rate of HCC-78 cells (control group = 100%) (HCC-78 cells; 72 hours after treatment): 16.04%

Reference: US11506654B2, “Method, composition and kit for screening ALK or ROS-1 kinase inhibitor” (KOREA INSTITUTE OF SCIENCE AND TECHNOLOGY, priority 2018, dated 2022)
